Molecular target: HLA-DR1 (DR1) (DRA*0101/DRB1*010101) (Homo sapiens, UniProt P01903+P01911, A100R/D57E/F55L/F60I/F76Y/I96L/L162R/M171V/P40L/Q125E/R42F/V115G/Y59C)
Test: MHC II stabilization assay
Conditions: 1 μM peptide-free DR1 with 1 μM HA or 1 μM DM, 37 °C overnight, pH 5.5, Superdex200; at least four independent experiments

In the case of Ac-PKYVKQNTLKLAT [HA peptide], the “aggregation of non peptide-loaded DR1” value is reported as “stabilized MHC II such that aggregation was not observed”.
